Where two headings read alike, the source gives them in different places.
Key:
[1] = rats
Procedure: (§1) The experiment was carried out with a single mice or rat per compound (per metabolic cage) and it was repeated 7 times with rats and twice with mice using the protocol below. The fluorescent feature of doxorubicin enables the observation of its presence in the urine following different modes of administration.
Urine was collected several times after administration and the fluorescence emission was measured by a fluorometer. The urine collected from the untreated groups was used as a blank.
Urine was collected at 1.25, 2.5, 4 and 6 hours after administration and fluorescence intensity was measured in a fluorometer (SPECTRAmax and GEMINI of Molecular Devices Sunnyvale Fluorometer, CA, USA). Since doxorubicin is a fluorescent material, when it absorbs light energy at a wavelength of 488 nm (excitation), it undergoes an electronic state change and instantaneously emits light at 595 nm (emission). The Relative Fluorescence Units (RFU) shown in FIG. 1 indicate the peaks of light emitted at 595 nm resulting from the absorption of Dox at 488 nm.

[2] = mice
Procedure: as §1
The experiments were repeated with mice.

## Fms-doxorubicin
[1]; 15 mg/Kg Fms-Dox oral, urine at 1.25, 2.5, 4 and 6 hours, average of 5 experiments
  oral absorption (Relative Fluorescence Units in urine, FIG. 1): orally absorbed
[1]; Dox 10 μg/g, Fms-Dox 15 μg/g I.P.
  absorption following I.P. administration (urine fluorescence): absorbed
[1]; Dox 10 μg/g, Fms-Dox 15 μg/g orally
  oral absorption (urine fluorescence): absorbed orally
[2]; I.P.
  absorption following I.P. administration (urine fluorescence): absorbed
[2]; orally
  oral absorption (urine fluorescence): absorbed orally

From patent publication US20050004000A1, “Oral absorbed drugs” (priority 2001, published 2005)
